# Measurements taken from US20240374605A1, “METHODS OF TREATING CANCER” (Foghorn Therapeutics Inc., priority 2021, published 2024).
# Assay: Body weight and tolerability in tumor-bearing mice
# Format: in vivo
# Conditions: all treatments, once daily oral gavage, 3 weeks
structure (smiles),measurement,value
CC1CN(c2cccc(-c3csc(NC(=O)CNC(=O)c4ccn(C(C)(C)C)c4)n3)n2)CC(C)O1 (centres unmarked),body weight change,no body weight loss
same,tolerability,well tolerated
